Experimental data as given in article PMC10287566, “Signaling-specific inhibition of the CB1 receptor for cannabis use disorder: phase 1 and phase 2a randomized trials” (Nature Medicine, 2023).

How the values were obtained:
[1] = system: healthy volunteers; test: Phase 1 single-ascending-dose (SAD) study, safety; settings: 0.2-6 mg single dose
[2] = system: healthy volunteers; test: Phase 1 multiple-ascending-dose (MAD) study, safety; settings: 0.6-6 mg once a day 7 d
[3] = system: volunteers with CUD; test: Phase 2a study, safety; format: in vivo, human; settings: n = 29
Text: Data from the first dose level were reviewed by the Data Safety Monitoring Board before ascending to the next dose level.
On day 6 of each period, before discharge from the research center, participants had sitting blood pressure and pulse rate measurements, clinical laboratory tests (chemistry, hematology and urinalysis) and body weight taken. The study start date was 23 October 2018; primary completion date was 31 July 2020; and actual study completion date was 1 January 2021. After the second study phase, participants were contacted 28 d after discharge so that we could inquire about the occurrence of any serious AEs (including pregnancies) that may have occurred since leaving the research site.

Measured: safety and tolerability

COc1ccc(CO[C@H]2CC[C@@]3(C)C(=CC[C@H]4[C@@H]5CC[C@H](C(C)=O)[C@@]5(C)CC[C@@H]43)C2)cc1 [AEF0117, 3β-(4-methoxybenzyloxy)pregn-5-en-20-one]
safe and well tolerated: all assays above
